Assay results as given in PMC3042044.

Target: SIRT3 (human)
Assay: fluorescence polarisation

- Kd: 5.9 µM
Substance: Histone H3 peptide with thiotrifluoroacetyl-lysine at Lys-14
